# AlphaSeq binding of Ab-14 heavy chain variants to a spike HR2 peptide

Source: Engelhart et al. 2022 (doi:10.1038/s41597-022-01779-4), MIT Lincoln Laboratory and A-Alpha Bio; data file from the FLAb repository.

Target peptide (SARS-CoV-2 spike, HR2 region): PDVDLGDISGINAS

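In library AAYL49, one, two or three CDR residues were substituted; doubles and triples were drawn at random. The assay is AlphaSeq: two haploid yeast populations carry antibody and antigen on their surface. Binding brings cells together so that they mate, and sequencing counts the barcode pairs among the diploids. A regression on co-assayed BCL2-family reference pairs converts the normalised counts of each replicate to an apparent Kd. Mating was done three times.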

Each scFv is VH, a (GGGGS)3 linker, VL, as in the parent Ab-14, and differs from it in the CDRs of the heavy chain only.
VH: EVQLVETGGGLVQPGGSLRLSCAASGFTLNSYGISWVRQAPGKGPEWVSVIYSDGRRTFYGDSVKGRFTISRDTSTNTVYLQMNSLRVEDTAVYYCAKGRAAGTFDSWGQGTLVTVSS
VL: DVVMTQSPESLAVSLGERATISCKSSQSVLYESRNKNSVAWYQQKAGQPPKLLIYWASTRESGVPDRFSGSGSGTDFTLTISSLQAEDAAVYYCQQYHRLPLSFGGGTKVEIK

The parent's heavy chain CDRs are GFTLNSYGIS, VIYSDGRRTFYGDSVK, GRAAGTFDS; each variant's own CDRs replace them letter for letter. Scale: log10 of Kd in nM, estimated from mating counts; low values are strong binders. A mean of the replicates is given; it leaves out those without a signal. Where no diploid with the target was found in that replicate, the entry reads "nd": below detection, most likely a poor binder, though not proof of it. Nonspecific signal, from three strains lacking the peptide, appeared in 15% of pairings of library AAYL49, centred on 4.06 (5% of these signals below 2.83); values are not corrected for it. For reference, the parent read 0.65 as the reference entry and 4.11 (one replicate of three) as a member of this library.

| CDR-H1 | CDR-H2 | CDR-H3 | log10 Kd (nM) by replicate | log10 Kd (nM), mean |
|---|---|---|---|---|
| RFTLFSYGIS | VIYSDGRRTFYGDSVK | GRAAGTFAS | nd nd nd | nd |
| TFTLNSYGIS | VYYSDGRRTFYGDSVK | GRKAGTFDS | 4.87 4.73 5.63 | 5.08 |
| GFTLNSYGIS | VIYSDLRRSFYGDSVK | GRAAGTFDY | nd nd nd | nd |
| GFTLNSYGAS | VIYSDVRRTFYGDSVK | GRAAGHFDS | nd nd nd | nd |
| GHTLNSYGIS | VIQSCGRRTFYGDSVK | GRAAGTFDS | 5.05 nd nd | 5.05 |
| GFALNSYGIS | VIYSDGRRTFYGDSVK | GCAAGTFDS | nd nd nd | nd |
| GFTLNSYGIS | VIYSDGRSTFLGDSVK | GRAAGTFDS | nd nd nd | nd |
| GFWLNSYGIS | VIYSDGRRTFYGDSHK | GRAAGTFDS | 4.79 nd 3.67 | 4.23 |
| GFTLNHYGTD | VIYSDGRRTFYGDSVK | GRAAGTFDS | nd 2.68 nd | 2.68 |
| GFTLNQYGIS | VIYSDGWRTFYGDSVK | DRAAGTFDS | nd nd 4.40 | 4.40 |
| GFTLNSYGIS | VLDSDGRRTFYGDSVK | GRAAGTRDS | nd nd nd | nd |
| GFTLNSYGIS | VIYSDGRQTFYGCSVK | GRALGTFDS | nd nd nd | nd |
| GFTLNSYGIS | VIYSVGRRTFYGNSVK | GRAAGTADS | 5.31 3.41 4.15 | 4.29 |
| GFTLCSYGIS | VILSDGRRTFYGDSCK | GRAAGTFDS | 4.16 5.31 nd | 4.74 |
| GFTLNSYGIS | VIYSDGRRTFYGDSVV | GRAAGTFDK | 2.07 1.85 2.19 | 2.04 |
| GFTLNSYGIS | VIYSDGRRTFYGDSIK | GRATGTFDS | 3.26 3.88 3.49 | 3.55 |
| GFTLNVYGIS | VCYYDGRRTFYGDSVK | GRAAGTFDS | nd 4.82 4.73 | 4.78 |
| GFTLNSYGIS | VIYSMGRRTWYGDSVK | GRAACTFDS | nd nd 3.10 | 3.10 |
| VFTLNSYGIS | VIYSWGRRTFYGDSVK | GRPAGTFDS | nd nd nd | nd |
| GFSLNSYGIS | VIYSDGRRTFYADSVK | RRAAGTFDS | 1.37 1.53 1.55 | 1.48 |
| GSTLNSYGIS | CIYSDGRRDFYGDSVK | GRAAGTFDS | nd nd nd | nd |
| NFTFNSYGIS | VIYSDGRRTFYGDSVK | GRAAGTFDT | 1.68 2.21 2.13 | 2.01 |
| GFTLNSYGIS | VIYSDGRRTFYGDGVK | GRAAGETDS | nd nd nd | nd |
| TFTLNSYGIS | VIYSDGCRTFYGDSVK | GWAAGTFDS | nd nd nd | nd |
| GFTLYSYTIS | VIYSDGRRTCYGDSVK | GRAAGTFDS | nd nd nd | nd |
| GFTLNSYGIS | VIHSDGFRTFYGDSVQ | GRAAGTFDS | nd nd nd | nd |
| GFTLNSYGIS | VIYSDGRRTFYGDWVD | GRVAGTFDS | 1.34 1.71 1.54 | 1.53 |
| GNTLNSYGIS | VIYSDGRRTFYGDSVK | GRAAQTFVS | nd nd nd | nd |
| GFTLCSYGIS | VIYSDGRRTFYGDSGK | GRSAGTFDS | nd nd 5.44 | 5.44 |
| GFTHNSYGIS | VIYSDGRRTFYGDSVR | GVAAGTFDS | nd nd nd | nd |
| GFTLNSYGIS | VIYSDGWRTFYADSVK | GRATGTFDS | nd 3.69 4.61 | 4.15 |
| GFTLNSYGIS | VIWSDGRRTFYPDSVK | GRNAGTFDS | nd nd nd | nd |
| GFTLNFYGIS | VIYSDGRSTFYGDSVK | GRAAGTFDS | nd nd nd | nd |
| GFTTNSYGIS | VIYSDGRRTFYGDSVQ | GRAAGTADS | 3.71 4.32 nd | 4.01 |
| GETLNSYGIS | VIYSWGRRTFYGDSVK | GRAACTFDS | nd nd nd | nd |
| GFTLNSYGIS | VIYSDGRRPFDGDSVK | GRAAITFDS | nd nd nd | nd |
| GFTLNSYGLS | VIYSDGRRTFYCDSVK | GRAAGTCDS | nd 4.60 nd | 4.60 |
| GFTLNSHGNS | VIYSDGRRTFYGDSVK | GRAAGTFPS | nd nd nd | nd |
| GFTLNSYGIS | AIYSDGRRTFHGDSVK | GRAAGTFDG | nd 4.01 nd | 4.01 |
| GFTLNSYGIS | VIYSYGRRTFYGDSVK | GRAAGWFDS | nd 2.51 nd | 2.51 |

4 of these entries, quoted again:

CDR-H1,CDR-H2,CDR-H3,log10 Kd (nM) by replicate,"log10 Kd (nM), mean"
GFTLNSYGIS,VIYSYGRRTFYGDSVK,GRAAGWFDS,nd 2.51 nd,2.51
GFTLNFYGIS,VIYSDGRSTFYGDSVK,GRAAGTFDS,nd nd nd,nd
GFTTNSYGIS,VIYSDGRRTFYGDSVQ,GRAAGTADS,3.71 4.32 nd,4.01
GFTLNSYGIS,VIYSDGRRTFYGDWVD,GRVAGTFDS,1.34 1.71 1.54,1.53